# Test results published in BindingDB's records for doi:10.1016/j.bmc.2010.11.049 (Bryn Mawr College, 2011).
# Experiment: Inhibition of HIV1 YU2 gp120 binding to CD4 expressing Cf2Th-CD4/CCR5 cells assessed as inhibition of viral infection after 48 hrs
row,Structure (SMILES),IC50
1,"CC1(C)CC(NC(=O)C(=O)Nc2ccc(Cl)c(F)c2)CC(C)(C)[N+]1(C)[O-] (stereo not given) [4-(2-(4-chloro-3-fluorophenylamino)-2-oxoacetamido)-1,2,2,6,6-pentamethylpiperidine 1-oxide]",> 100 µM
2,O=C(Nc1ccc(Cl)c(F)c1)C(=O)NC1CCN(C2CCCCC2)C1 (stereo not given) [N1-(4-chloro-3-fluorophenyl)-N2-(1-cyclohexylpyrrolidin-3-yl)oxalamide],57.1 µM
3,O=C(NCC1CCN(C2CC2)C1)C(=O)Nc1ccc(Cl)c(F)c1 (stereo not given) [N1-(4-chloro-3-fluorophenyl)-N2-((1-cyclopropylpyrrolidin-3-yl)methyl)oxalamide],33.5 µM
4,CCN1CCC(CNC(=O)C(=O)Nc2ccc(Cl)c(F)c2)CC1 [N1-(4-chloro-3-fluorophenyl)-N2-((1-ethylpiperidin-4-yl)methyl)oxalamide],> 100 µM
5,"CC1(C)CC(NC(=O)C(=O)Nc2ccc(Cl)cc2)CC(C)(C)N1 [N-(4-chlorophenyl)-N'-(2,2,6,6-tetramethylpiperidin-4-yl)-oxalamide]",73.7 µM
